Biological target: CRBN/DDB1 protein (Homo sapiens, UniProt Q96SW2)
Experiment: Detection of inhibition of CRBN/DDB1 activity by compounds (FRET)
Details: read-out: IC50, inhibition of CRBN/DDB1 protein, 5.0 nM CRBN/DDB1, 0.2 nM Anti-6His-Tb, 50.0 nM FITC-labeled thalidomide analogue, 1.0% DMSO, 25° C.
Procedure: Test Example 1 Detection of Inhibition of CRBN/DDB1 Activity by Compounds (FRET)
Microplate reader (BMG PHERAstar FSX), ECHO (LABCYTE Echo 665), microplate thermostatic oscillator (Hangzhou Ruicheng Instrument Co., Ltd.), disodium hydrogen phosphate (Sigma), sodium dihydrogen phosphate (Sigma), bovine serum albumin (Sigma), Anti-6His-Tb crypate Gold (CISBIO), CRBN/DDB1 protein (HitGen) and 384-well plate (Grenier Bio-one).
The dry powder of the compound was dissolved in DMSO, and the compound was serially diluted using ECHO, and added to a 384-well reaction plate, so that the final concentration of DMSO in the whole reaction system (10.0 μL) was 1.0%, and the same amount of DMSO was added as a control.
20 mM disodium hydrogen phosphate, 20 mM sodium dihydrogen phosphate, 0.08% bovine serum albumin and buffer with pH of 7.0 were used to dilute the CRBN/DDB1 protein to twice the required final concentration (5.0 nM), and 5.0 μL of the diluted CRBN/DDB1 protein was added into the 384-well reaction plate added with compounds, centrifuged at 1000 rpm for 1 min, then placed on a microplate thermostatic oscillator, and pre-incubated at 25° C. and 250 rpm for 15 min. 20 mM disodium hydrogen phosphate, 20 mM sodium dihydrogen phosphate, 0.08% bovine serum albumin and buffer with a pH of 7.0 were used to dilute Anti-6His-Tb crypate Gold and FITC-labeled thalidomide analogues to twice the required final concentration, and the final concentration of Anti-6His-Tb crypate Gold was 0.2 nM, the final concentration of FITC-labeled thalidomide analogues was 50.0 nM, and a mixed solution of Anti-6His-Tb crypate Gold/FITC-labeled thalidomide analogues was obtained. […] After the reaction was completed, the fluorescence signal value (Ex-337 nm Em=520/490 nm) in the 384-well reaction plate was read by the microplate reader. […]
The percentage of residual activity of each concentration was calculated as follows: […]
Then, the dose-effect curve was fitted using GraphPad Prism 6.0 and the IC50 value was calculated accordingly.

Chains of the proteins cited; added tags and fusions are not shown.
UniProt Q96SW2, whole entry: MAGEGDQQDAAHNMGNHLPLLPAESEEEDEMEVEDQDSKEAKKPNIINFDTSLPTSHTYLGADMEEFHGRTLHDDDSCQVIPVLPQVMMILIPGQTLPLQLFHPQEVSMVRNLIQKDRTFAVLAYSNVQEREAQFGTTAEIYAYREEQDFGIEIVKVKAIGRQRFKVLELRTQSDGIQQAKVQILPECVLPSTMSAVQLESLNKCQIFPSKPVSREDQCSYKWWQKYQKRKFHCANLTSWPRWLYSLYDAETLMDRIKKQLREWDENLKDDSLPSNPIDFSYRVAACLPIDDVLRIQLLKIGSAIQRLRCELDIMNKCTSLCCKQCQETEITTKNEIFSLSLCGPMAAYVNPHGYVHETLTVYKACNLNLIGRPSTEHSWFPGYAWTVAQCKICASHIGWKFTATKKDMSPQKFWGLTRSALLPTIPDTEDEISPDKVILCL
UniProt Q16531, whole entry partner: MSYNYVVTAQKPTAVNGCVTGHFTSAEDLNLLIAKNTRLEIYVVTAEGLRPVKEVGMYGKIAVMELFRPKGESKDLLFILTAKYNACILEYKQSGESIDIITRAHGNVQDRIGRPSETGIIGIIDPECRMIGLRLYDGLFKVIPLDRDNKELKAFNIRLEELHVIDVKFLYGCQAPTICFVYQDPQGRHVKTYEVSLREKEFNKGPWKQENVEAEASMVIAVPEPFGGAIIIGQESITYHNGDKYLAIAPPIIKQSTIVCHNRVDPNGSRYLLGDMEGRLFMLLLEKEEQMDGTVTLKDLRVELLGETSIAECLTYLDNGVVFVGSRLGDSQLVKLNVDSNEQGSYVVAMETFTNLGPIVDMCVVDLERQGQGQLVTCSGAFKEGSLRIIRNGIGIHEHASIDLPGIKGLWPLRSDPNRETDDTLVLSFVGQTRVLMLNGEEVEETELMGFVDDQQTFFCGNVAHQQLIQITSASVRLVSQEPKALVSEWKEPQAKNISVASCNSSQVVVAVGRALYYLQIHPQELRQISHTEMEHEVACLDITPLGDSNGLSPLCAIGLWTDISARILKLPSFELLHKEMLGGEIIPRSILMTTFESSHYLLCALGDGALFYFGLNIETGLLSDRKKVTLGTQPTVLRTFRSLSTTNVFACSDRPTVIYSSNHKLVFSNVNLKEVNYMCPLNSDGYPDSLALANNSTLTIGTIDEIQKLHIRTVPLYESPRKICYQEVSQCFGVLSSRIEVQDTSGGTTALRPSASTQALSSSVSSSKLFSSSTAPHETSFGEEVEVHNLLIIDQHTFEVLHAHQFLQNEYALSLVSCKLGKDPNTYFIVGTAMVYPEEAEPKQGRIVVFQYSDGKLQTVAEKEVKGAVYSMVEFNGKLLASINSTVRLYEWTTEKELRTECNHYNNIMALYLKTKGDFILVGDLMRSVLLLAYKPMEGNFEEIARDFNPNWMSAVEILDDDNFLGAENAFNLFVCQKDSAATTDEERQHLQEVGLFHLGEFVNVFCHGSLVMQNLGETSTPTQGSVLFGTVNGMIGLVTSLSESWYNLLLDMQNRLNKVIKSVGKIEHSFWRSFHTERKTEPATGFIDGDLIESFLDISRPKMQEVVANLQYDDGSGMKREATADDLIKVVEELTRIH

| IC50 [nM] | Structure (SMILES) |
| --- | --- |
| 52 | O=C1CC2(CN(C(=O)c3c4ccccc4n4cc[nH]c(=O)c34)C2)C(=O)N1 |
| 9 | CN1CCn2c(c(C(=O)N3CC4(CC(=O)NC4=O)C3)c3ccccc32)C1=O |
| 24 | Cn1ccn2c(c(C(=O)N3CC4(CC(=O)NC4=O)C3)c3ccccc32)c1=O |
